Source: PubChem BioAssay AID373 (The Scripps Research Institute Molecular Screening Center, 2006)
The entries are a selection whose mix differs from that of the whole data set. The source made the active and inactive calls.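 The calls were made as follows: active = activation above the screen-wide mean plus 3 SD (cut at about 4.5% in these data, passing the limit was not always enough); inactive = the rest, inconclusive results apart.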

Chains of the proteins cited; added tags and fusions are not shown.
UniProt Q99500, whole entry: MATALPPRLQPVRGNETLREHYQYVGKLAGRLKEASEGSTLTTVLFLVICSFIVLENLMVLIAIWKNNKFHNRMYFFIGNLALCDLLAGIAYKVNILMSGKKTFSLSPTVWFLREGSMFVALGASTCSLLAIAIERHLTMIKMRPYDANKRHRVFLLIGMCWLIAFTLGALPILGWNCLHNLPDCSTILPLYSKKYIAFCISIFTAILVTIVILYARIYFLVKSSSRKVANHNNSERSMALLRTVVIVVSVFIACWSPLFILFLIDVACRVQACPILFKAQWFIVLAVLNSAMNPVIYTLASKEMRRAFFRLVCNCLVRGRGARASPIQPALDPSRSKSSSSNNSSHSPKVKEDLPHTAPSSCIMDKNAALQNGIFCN

Biological target: Sphingosine 1-phosphate receptor 3 (Homo sapiens) (UniProt Q99500)
Test: human S1P3 receptor agonists, primary screen, cell-based, primary and confirmation, NFAT-BLA reporter (AID 373)
Settings: S1P3 NFAT-BLA reporter cells, agonism, FRET ratio; at 4.5 µM; hits give high values; relative to 1 µM S1P, basal subtracted

SMILES	activation
CCN(CC)CC(O)COC(=O)C(O)(c1ccccc1)C1CCCCC1 (stereo unspecified)	inactive: -4.2%
COc1ccccc1OP(C)(=O)Nc1c(C)n(C)n(-c2ccccc2)c1=O (stereo unspecified)	inactive: -0.1%
CP(=O)(Oc1ccccc1)N1CCOC1=O (stereo unspecified)	inactive: 0%
Cc1nc2ccc3ccccc3c2o1.O=[N+]([O-])c1cc([N+](=O)[O-])c(O)c([N+](=O)[O-])c1	inactive: -0.3%
COc1ccccc1OP(C)(=O)Nc1ccc(C)c(C)c1 (stereo unspecified)	inactive: 0%
CP(=O)(Nc1ccccn1)Oc1ccccc1 (stereo unspecified)	inactive: -1.3%
CP(=O)(Nc1ccccc1F)Oc1ccccc1 (stereo unspecified)	inactive: -0.2%
CN(C)CCOC(=O)C(O)(c1ccccc1)C1CCCCC1 (stereo unspecified)	inactive: -0.9%
Cc1ccccc1NP(C)(=O)Nc1ccccc1C	inactive: 0.6%
CCOP(C)(=S)SCC(=O)NC(C)(CC)C(=O)O (stereo unspecified)	inactive: 0.7%
Cc1nc2ccc3ccccc3c2s1.O=[N+]([O-])c1cc([N+](=O)[O-])c(O)c([N+](=O)[O-])c1	inactive: -0.5%
Cc1ccc(C)c(NP(C)(=O)Oc2ccccc2)c1 (stereo unspecified)	inactive: -0.9%
Cc1ccc(NP(C)(=O)Oc2ccccc2)c(C)c1 (stereo unspecified)	inactive: -2.2%
COc1ccccc1OP(C)(=O)Nc1ccc(C)cc1 (stereo unspecified)	inactive: -0.8%
CP(=S)(Nn1cnnc1)Oc1ccccc1 (stereo unspecified)	inactive: 0.2%
CCOP(C)(=S)SCC(=O)NC(C)C(=O)O (stereo unspecified)	inactive: -1.8%
